Assay results: patent US20250127909A1

How the values were obtained:
BRD4:TCIP1 = assay: BLI; ternary complex with TCIP1
[1] = target: BRD4^BD1 (bromodomain 1 of BRD4), tag-cleaved version (UniProt O60885); assay: ITC, ternary complex: BCL6^BTB titrated into BRD4^BD1 pre-incubated 20:1 with the small molecule TCIP1
[2] = target: BCL6^BTB-AviTag, biotinylated (BTB domain of BCL6, amino acids 5-129, C8Q, C67R, C84N) (UniProt P41182); assay: BLI, ternary complex with TCIP1: biotinylated BCL6^BTB on the tip, excess BRD4^BD1 in the well
[3] = target: BCL6^BTB-AviTag, biotinylated (BTB domain of BCL6, amino acids 5-129, C8Q, C67R, C84N) (UniProt P41182); assay: BLI, ternary complex: biotinylated BCL6^BTB on the tip, 50 µM BRD4^BD1 in the well with titration of the small molecule TCIP1

pKd (BRD4:TCIP1): 6.50
Substance: BCL6

pKd [1]: 6.47
Substance: BCL6^BTB (BTB domain of BCL6, amino acids 5-129, C8Q, C67R, C84N), tag-cleaved version (from UniProt P41182 5-129)

half-life [2]: 30 s
pKd [3]: 6.50
Substance: BRD4^BD1 (bromodomain 1 of BRD4), tag-cleaved version (from UniProt O60885 44-168)

pKd: −log10 of the molar value. One block for each substance: values may come before it.
